Results published in US20030108957A1.

B1: fluorescein-labeled Pyrr1-9 (peptide)
peptide: VDKGSYLPR
modifications: not checked
B2: fluorescein-labeled Pyrr10-20 (peptide)
peptide: PTPPRPIYNRN
modifications: not checked

Biological target: E. coli DnaK aa588-615 (E. coli)
Assay: fluorescence polarization, fluorescein-labeled pyrrhocoricin halves

Row | Binder | millipolarization unit increase going from 32 µM to 160 µM (millipolarization unit)
1 | B1 | 30
2 | B2 | 30
